In the library only some 1.3% were active in any assay of this set; here they are far more common.
LGR2 antag: inhibitors of bursicon-induced LGR2 CRE-luciferase signal, primary screen, cell-based, HEK293, CRE-luciferase reporter, bursicon stimulation; Drosophila bursicon receptor LGR2 (rickets); bursicon-stimulated, 4 h; inhibition, % at 9.99 µM; hit rate 0.35% among 380,000; AID 720647, 2013;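 active = drop in luminescence signal, shown as inhibition above about 50% in the replicate tests, limit read from the data, passing the limit was not always enough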;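 note: agonist challenge used bursicon conditioned medium at about half maximal strength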
UUG fidelity: yeast start codon fidelity modulation. S. cerevisiae UUG-firefly luciferase reporter, luminescence/redox ratio. activity score, % at 18.7 µM. 0.13% of 350,000 active;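 active = replicate mean at a twofold rise or more, about +100% in these data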;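 also: firefly luciferase made from a UUG start codon reports start codon fidelity; reporter light over untreated wells divided by growth signal over untreated wells; some hits fall short of that in this replicate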
EWS-Fli block: EWS/Fli-driven NR0B1 reporter inhibitors, primary screen, A673 cells, NR0B1 luciferase, luminescence, MLPCN library; viability-normalised; inhibition, % at 12.6 µM; hit rate 0.67% among 350,000; AID 651661, 2012;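 active = mean inhibition of at least 50% after viability correction, with every replicate also passing that limit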;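 note: firefly luciferase signal divided by Alamar Blue viability fluorescence both relative to DMSO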
miR122 inh: miR-122 Renilla sensor signal increase in Huh7, primary screen, miR-122 inhibitor project, cell-based, single point, plate reader; Huh7 miR-122 Renilla luciferase sensor, 48 h; neutral wells = 0, positive control = 100; AID 602342, 2012; hit rate 0.3% among 340,000; activation (reporter increase), % at 12.5 µM;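 active = mean replicate activation score at least 90 and every replicate individually at or above 90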;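 note: higher luciferase means less miR-122 activity so hits act as miR-122 inhibitors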
F508del corr: F508del CFTR correction, initial screen, CFBE line, single point; CFBE cells, YFP halide quenching; stimulated with forskolin plus potentiator P3; % fluorescence drop versus neutral controls; activity (quench increase), % at 7.58 µM; hit rate 0.36% among 350,000;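 active = mean added fluorescence quench of at least 8% versus neutral control, with both replicates also reaching 8%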;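 note: cells transiently co-express mutant CFTR-F508del with the halide-sensitive YFP; corrector assay measuring rescue of mutant channel to the surface after 24 h compound exposure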
PglD DTNB: C. jejuni PglD acetyltransferase inhibitors, primary screen, biochemical, DTNB colorimetric, single point; AID 602405, 2012; purified PglD enzyme, DTNB colorimetric CoA detection; inhibition, % at 12.5 µM; UDP-N-acetylbacillosamine N-acetyltransferase PglD (Campylobacter jejuni); hit rate 0.098% among 360,000; in the data active = inhibition above about 16%, passing the limit was not always enough
PglD confirm: PglD acetyltransferase inhibitors, confirmation, biochemical, DTNB absorbance, single point, cherry-picked samples; shares compounds with PglD DTNB; Purified C. jejuni PglD, DTNB absorbance 412 nm; inhibition, % at 20 µM; 320 tested, under 10 active; AID 743156, 2013;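 active = mean inhibition across replicates of at least 20% with every single replicate also at 20% or more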;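 note: initial rate of CoA release by acetyl transfer from AcCoA to the UDP-4-amino sugar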
Large screens that a line does not name were inactive (follow-up assays come after a bar, where they were run).

CCN(CC)C(=O)c1ccccc1NC(=O)c1cccc(S(=O)(=O)N(CC)CC)c1	none (no result: UUG fidelity, PglD DTNB)
CCN(CC)C(=O)c1ccccc1NC(=O)c1ccccc1	PglD DTNB 28.5 (no result: miR122 inh) | PglD confirm inactive
O=C(CCc1nc2ccccc2s1)N1CCN(S(=O)(=O)c2cccs2)CC1	none (no result: LGR2 antag, EWS-Fli block, F508del corr)
O=S(=O)(c1cccs1)N1CCN(Cc2nc3ccccc3s2)CC1	PglD DTNB 24.1 (no result: LGR2 antag, EWS-Fli block, F508del corr) | PglD confirm inactive
CC(C)NC(=O)N1CC[C@H]2[C@@H]1c1cc(Br)ccc1N(C)[C@H]2CO	none
CC(O)(c1cccnc1)c1nc(-c2ccc3ccccc3c2)cs1 (configuration not stated)	PglD DTNB 22.2 | PglD confirm inactive
CO[C@@H]1CN(C)C(=O)c2cc(NC(=O)Nc3cccc(Cl)c3)ccc2OC[C@@H](C)N(C(=O)Nc2c(C)noc2C)C[C@H]1C	none (no result: UUG fidelity, PglD DTNB)
COc1ccc(CONS(=O)(=O)c2ccc(NC(C)=O)cc2)cc1Cl	PglD DTNB 21.8 (no result: EWS-Fli block, F508del corr) | PglD confirm inactive
O=C(NNS(=O)(=O)c1ccc(Cl)cc1)c1sccc1-n1cccc1	PglD DTNB 24.9 (no result: LGR2 antag, EWS-Fli block, F508del corr) | PglD confirm inactive
O=C(NNS(=O)(=O)c1ccccc1)c1sccc1-n1cccc1	none (no result: LGR2 antag, EWS-Fli block, F508del corr)
COc1ccc(Cc2nnc3sc(SCC(=O)Nc4ccccc4)nn3c2=O)cc1OC	none
Oc1cc2c(cc1CN1CCN(c3cccc(C(F)(F)F)c3)CC1)CCC2	PglD DTNB 55.1 (no result: LGR2 antag, EWS-Fli block, F508del corr) | PglD confirm inactive
COc1ccc(N2CCN(Cc3cc4c(cc3O)CCC4)CC2)cc1	none (no result: LGR2 antag, EWS-Fli block, F508del corr)
COc1ccc(CNCc2cccc(Cl)c2)cc1	PglD DTNB 30.5 (no result: F508del corr) | PglD confirm inactive
O=C(O)c1ccc(CNCc2cccc(Cl)c2)cc1	none (no result: UUG fidelity, miR122 inh, PglD DTNB)
c1ccc(CNc2nc(-c3cccnc3)nc3ccccc23)cc1	none
c1cncc(CNc2nc(-c3cccnc3)nc3ccccc23)c1	PglD DTNB 23.9 | PglD confirm inactive
CC(C)c1nnc(NC(=O)CS(=O)(=O)c2ccccc2)s1	none
Oc1ccc(-c2cnc(-c3ccc(O)cc3)nc2)cc1	none (no result: EWS-Fli block, miR122 inh)
Nc1ccc(-c2cnc(-c3ccc(N)cc3)nc2)cc1	PglD DTNB 30.9 (no result: LGR2 antag, EWS-Fli block, F508del corr) | PglD confirm inactive
Cc1cc(NC(=O)C2CCN(S(=O)(=O)c3cnc[nH]3)CC2)ccc1Br	PglD DTNB 27.7 (no result: LGR2 antag, EWS-Fli block, F508del corr) | PglD confirm inactive
Cc1ccc(NC(=O)C2CCN(S(=O)(=O)c3cnc[nH]3)CC2)cc1C	none (no result: EWS-Fli block, F508del corr)
CC(C(=O)Nc1ccc(Cl)cc1)N(C)Cc1cccs1 (configuration not stated)	PglD DTNB 23.4 | PglD confirm inactive
CCOC(=O)Cn1nc(C)c(NC(=O)c2ccc([N+](=O)[O-])c(C)c2)c1C	none (no result: UUG fidelity, miR122 inh, PglD DTNB)
COC(=O)Nc1ccc(S(=O)(=O)Nc2ccccc2F)cc1	none (no result: EWS-Fli block, F508del corr)
COC(=O)Nc1ccc(S(=O)(=O)Nc2cc(C(F)(F)F)c[nH]c2=O)cc1	PglD DTNB 30.6 | PglD confirm inactive
CC1CCCCN1C(=O)CCNS(=O)(=O)c1ccc2c(c1)c(=O)n(C)c(=O)n2C (configuration not stated)	none (no result: EWS-Fli block)
CCNC(=O)C1CC(=O)N(Cc2ccc3c(c2)OCO3)C(=Nc2ccc(OCC)cc2)S1 (configuration not stated)	PglD DTNB 24.2 (no result: LGR2 antag, EWS-Fli block, F508del corr) | PglD confirm inactive
Cc1cccc(N(Cc2cc3ccccc3[nH]c2=O)C(=O)c2ccco2)c1C	PglD DTNB 31.5 (no result: LGR2 antag, EWS-Fli block, F508del corr) | PglD confirm inactive
Cc1ccc(C)c(N(Cc2cc3ccc(C)cc3[nH]c2=O)C(=O)c2ccco2)c1	none
C=CCNc1nc(Cl)nc(Nc2ccc(OCC)cc2)n1	PglD DTNB 29.3 (no result: F508del corr) | PglD confirm inactive
Cc1ccc(N(C(=O)CNC(=O)c2ccco2)C(C(=O)NC2CCCC2)c2cccnc2)cc1F (configuration not stated)	none
CC(C)Cn1nc(C(=O)N2CCc3ccccc32)c2ccccc2c1=O	none
NC(=O)CC(NC(=O)c1ccc(Cl)cc1)C(=O)NCCc1ccc(S(N)(=O)=O)cc1 (configuration not stated)	PglD DTNB 23.1 | PglD confirm inactive
O=C1CSCN1c1ccc(Cl)cc1	PglD DTNB 83.1 | PglD confirm inactive
CCOc1ccc(C(=O)NCC(=O)NNC(=O)c2ccco2)cc1OCC	none
CC1=CC(=NOC(=O)/C=C/c2ccccc2)C=C(C)C1=O	PglD DTNB 28.0 (no result: LGR2 antag, EWS-Fli block, F508del corr) | PglD confirm inactive
CCN1C(=O)CC(N2CCN(c3ccc(C(=O)c4ccccc4)cc3)CC2)C1=O (configuration not stated)	none (no result: LGR2 antag, EWS-Fli block, F508del corr)
CCN1C(=O)CC(N2CCN(c3ccc(Cl)cc3)CC2)C1=O (configuration not stated)	PglD DTNB 35.0 (no result: LGR2 antag, EWS-Fli block, F508del corr) | PglD confirm inactive
O=C(C1=C[C@H](c2ccc3c(c2)OCO3)C[C@H](OCc2ccc(CO)cc2)O1)N1CCCCC1	none (no result: LGR2 antag, miR122 inh)
Cc1ccccc1OCC(=O)N/N=C/c1cc2ccccc2nc1Cl	PglD DTNB 25.6 (no result: LGR2 antag, EWS-Fli block, F508del corr) | PglD confirm inactive
O=C(COc1cccc(Cl)c1)N/N=C\c1cc2ccccc2nc1Cl	none (no result: EWS-Fli block, F508del corr)
CC(C)c1ccc(NC(=O)CSc2nnc(CN3CCOCC3)n2C)cc1	PglD DTNB 99.0 | PglD confirm inactive
Cc1ccc(NC(=O)CSc2nnc(CN3CCOCC3)n2C)cc1C	none (no result: UUG fidelity, EWS-Fli block, F508del corr, PglD DTNB)
CN1C(=O)c2cc(NC(=O)c3ccc(F)c(F)c3)ccc2OC[C@@H]2O[C@@H](CC(=O)O)CC[C@H]21	none
COc1ccc2c(c1)C(=O)c1ccccc1CO2	PglD DTNB 40.3 (no result: EWS-Fli block, F508del corr) | PglD confirm inactive
CCOc1ccccc1NC(=S)N1CCC(c2nc3ccccc3o2)CC1	PglD DTNB 21.3 | PglD confirm inactive
O=C(O)CC/C(=N\NC(=O)CNC(=O)/C=C/c1ccccc1)c1ccccc1	PglD DTNB 26.2 | PglD confirm inactive
COc1ccc(/C=C/C(=O)NCC(=O)N/N=C(/CCC(=O)O)c2ccccc2)cc1	none
COCCn1c(SCc2nc3sc(C(=O)OC)c(C)c3c(=O)[nH]2)nc2ccccc21	none (no result: LGR2 antag, EWS-Fli block, F508del corr)
CCn1c(SCc2nc3sc(C(=O)O)c(C)c3c(=O)[nH]2)nc2ccccc21	PglD DTNB 27.6 (no result: LGR2 antag, EWS-Fli block, F508del corr) | PglD confirm 47.3
CC(Nc1ccc2ccccc2c1)C(=O)N/N=C/c1ccncc1 (configuration not stated)	none
Clc1ccc(-c2noc(CN3CCCC3)n2)cc1	PglD DTNB 30.9 (no result: EWS-Fli block, F508del corr) | PglD confirm inactive
Cc1ccc(-c2noc(CN3CCCCC3)n2)cc1	none (no result: LGR2 antag, EWS-Fli block, F508del corr)
O=C(C[C@H]1CC[C@@H]2[C@H](COC[C@H](O)CN2C(=O)Nc2ccccc2)O1)NCCCN1CCOCC1	none

Screening data deposited in PubChem by Broad Institute.
